Laboratory results reported in patent US20040254129A1, “Use of ethoxylated phytosterols and phytostanols” (priority 2001, published 2004).

Tested on: fresh blood taken from beagle dog (red blood cells)
Assay: Determination of hemolysis in fresh blood
Assay type: cell-based
Experimental: 100 μl surfactant solution was added to 400 μl fresh blood taken from beagle dog. The blood and surfactant mixture was gently agitated for 2-3 seconds immediately after addition, followed by 10 mins incubation at 37° C. under gentle shaking. […] During centrifugation the sample separated into a sediment of red blood cells and a supernatant. […] Each determination was carried out for triplicate samples.
After 30 minutes 400 μl of the so-obtained solution was mixed with 100 μl normal saline. From the resulting solution, a small fraction was removed and analysed with respect to hemoglobin content with a Cobas Bio spectrophotometer.
The degree of hemolysis was calculated according to the following expression [formula]
The position of the hemolysis curve along the concentration axis in such a diagram determines the hemolytic activity. The more hemolytic a surfactant is, the lower concentration is required to obtain a certain degree of hemolysis. In order to quantify the hemolytic activity, the concentration was considered at which 5% hemolysis was obtained. The higher the concentration, the lower the activity. The procedure was repeated at least once for all surfactants.

How did the “degree of hemolysis, % H” value (surfactant 0.381 mM in blood/surfactant mixture) turn out when Sucrose laurate was run?
Its value is 1.274%.

What about the “degree of hemolysis, % H” value (surfactant 0.610 mM in blood/surfactant mixture) of the same substance?
The value was 3.287%.

What about the “degree of hemolysis, % H” value (surfactant 0.839 mM in blood/surfactant mixture) of the same substance?
Its value is 5.343%.

What about the “degree of hemolysis, % H” value (surfactant 1.067 mM in blood/surfactant mixture) of the same substance?
Its value is 8.328%.

And the “degree of hemolysis, % H” value (surfactant 1.296 mM in blood/surfactant mixture)?
Its value is 10.054%.

And the “degree of hemolysis, % H” value (surfactant 1.525 mM in blood/surfactant mixture)?
The value was 12.417%.

And the “Hemolytic activity (concentration range at which 5% hemolysis is obtained)” value (surfactant concentration in blood/surfactant mixture, read from hemolysis curves)?
Its value is 0.8 mM.
